Assay results as given in ChEMBL document CHEMBL6074689 (Eur J Med Chem, 2025).

By UniProt entry, the sequences of proteins in these tests, tags left out.
UniProt P06276, whole entry: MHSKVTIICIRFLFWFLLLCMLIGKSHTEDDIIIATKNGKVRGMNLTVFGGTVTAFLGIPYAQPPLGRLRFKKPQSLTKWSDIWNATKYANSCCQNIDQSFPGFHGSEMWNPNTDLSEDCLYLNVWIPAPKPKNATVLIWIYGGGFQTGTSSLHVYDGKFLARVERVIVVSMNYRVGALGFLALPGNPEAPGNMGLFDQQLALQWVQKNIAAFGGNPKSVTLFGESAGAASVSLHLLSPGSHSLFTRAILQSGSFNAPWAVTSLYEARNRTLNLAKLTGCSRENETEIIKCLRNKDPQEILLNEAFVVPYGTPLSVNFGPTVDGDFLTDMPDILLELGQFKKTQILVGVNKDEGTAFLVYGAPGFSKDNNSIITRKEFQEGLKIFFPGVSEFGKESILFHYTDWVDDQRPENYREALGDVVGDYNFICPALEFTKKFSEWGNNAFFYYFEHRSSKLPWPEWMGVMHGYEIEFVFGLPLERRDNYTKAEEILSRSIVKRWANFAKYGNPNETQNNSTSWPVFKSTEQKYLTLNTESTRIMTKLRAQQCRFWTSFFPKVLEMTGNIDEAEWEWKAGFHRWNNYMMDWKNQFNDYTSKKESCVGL

Biological target: Cholinesterase (Homo sapiens, UniProt P06276)

Q: Which IC50 does the source give for CCN(C)C(=O)Oc1cccc([C@H](C)N(C)C)c1 [RIVASTIGMINE] here?
A: Its IC50 is 91 nM.
